Experiments:
PMT = target: T1, PMT (Homo sapiens, UniProt O75695); assay: smDIMSA: change in diffusion coefficient of control PMT-mEos3.2 in living COS7 cells; assay type: binding; conditions: for change in diffusion coefficient of PMT: COS7 cells expressing PMT-mEos3.2
T1 construct: expressed in transfected cells; host or cells: COS7
Method: A plasmid in which PMT is linked with a fluorescent protein was prepared to be used as a control group for Example 1.1. DNA (SEQ ID NO: 5) corresponding to PMT was inserted into the subcloned pcDNA3.1/mEos3.2-his using restriction enzymes such as Xbal (SEQ ID NO: 3) and NotI (SEQ ID NO: 4), thereby constructing pcDNA3.1/PMT-mEos3.2-His.
COS7 cells provided by ATCC were grown in DMEM (Dulbecco's Modified Eagle Medium, Lonza) under conditions of 37° C., 5% CO2, and 95% humidity, with 10% FBS (Gibco), and COS7 cells were transfected with each of the plasmids constructed in Examples 1.1 and 1.2 using Lipofectamine 2000 (Invitrogen) according to the manufacturer's instruction. To reduce the influence of protein overexpression, cells showing especially low expression level were sorted from the cells grown for 24 hours after transfection through flow cytometry. In detail, the transfected cells were washed with PBS to remove debris, detached from a bottom using a detaching buffer, and collected and strained with a cell strainer (40 μm, BD Bioscience). Afterward, the cells showing low expression level were specifically sorted using a MoFlo™ XDP cell sorter (Beckman Coulter).
The coverslip on which the cells were seeded as described in Example 1.3 was placed onto a microscope with a live cell chamber (37° C., 5% CO2) and an electron multiplying charge coupled device (EM-CCD) and observed the cells at a single cell level. The microscope, the Olympus IX71 model, is designed based on total internal reflection fluorescence (TIRF), and can be used to observe only fluorescent molecules at a plasma membrane of a cell closely attached (within about 200 nm from a coverslip) to a round coverslip. mEos3.2 fluorescent proteins were randomly converted from a green form into a red from by cleaving their backbone using 405 nm laser, and an image of the randomly converted red-form mEos3.2 fluorescent protein was obtained by an electron multiplying charge coupled device (EM-CCD), ixon3 897, manufactured by Andor Technology, which can detect a signal emitted from a single fluorescent molecule using 561 nm laser.
The fluorescent images were sequentially obtained at regular intervals of time (about 150 ms), and a centroid was found from the signal of a single molecule present on each image through centroid fitting, and the moving distance per unit time and the trajectory of the fluorescent protein were determined by using multiple tracking between consecutive images, and a mean square displacement (MSD) was calculated by Equation 1.

[1] = tested on: EGFR activation caused by EGF; assay: western blotting of EGFR and Erk1/2 phosphorylation in COS7 cells with/without EGF; assay type: cell-based; conditions: EGF-existing environment
[2] = tested on: membrane protein present on the cell surface of COS7 cells; assay: flow cytometry of Alexa Fluor 647-conjugated antibodies on COS7 cells; assay type: binding
Method: In detail, COS7 cells were treated with the Alexa Fluor 647-conjugated antibody to induce binding with a membrane protein, and a fluorescent signal attached to the surface of the cell was observed by flow cytometry, and the results are shown in FIG. 15.

[3] = tested on: endogenous EGFR expressed in COS7 cells; assay: smDIMSA of endogenous EGFR labeled with Alexa Fluor 647-conjugated Fab of mAb 199.12 in a single living COS7 cell; assay type: binding; conditions: cetuximab 20 μg/ml
Method: Fab fragments were generated using a Fab preparation kit (Pierce, 44685). First, a resin conjugated with a proteinase, papain, was mixed with an immunoglobulin antibody in a buffer effective for an enzyme reaction to occur and the reaction was conducted at 37° C. for 5 to 6 hours. After the reaction was completed, the antibody that is cleaved into two Fab fragments and an Fc fragment and the papain resin were centrifuged to separate only a supernatant. A protein A-conjugated resin and the supernatant were mixed, and then centrifuged again, thereby obtaining a purified Fab fragment.
Antibodies were conjugated with an organic fluorescent dye, Alexa Fluor 647, using an Alexa Fluor® 647 antibody labeling kit (Invitrogen). […]
The fluorescence-labeled endogenous EGFR prepared in Example 12.5 was illuminated with 642 nm laser to temporarily turn off the fluorescence of Alexa Fluor 647 to make it possible to observe at a single molecule level, the electron state of the fluorescent molecule was changed with 405 nm laser to allow to randomly turn on the fluorescence, and then fluorescent images were sequentially obtained with 642 nm laser at regular intervals of time (about 50 ms) by an electron multiplying charge coupled device (EM-CCD) ixon3 897, manufactured by Andor Technology, which can detect a signal transmitted from a single fluorescent molecule. […]

[4] = tested on: endogenous EGFRs expressed in various cell lines; assay: smDIMSA of endogenous EGFRs in COS7, A431, MDA-MB-231, BT20, HCC827 cell lines; assay type: binding; conditions: five cell lines: COS7, A431, MDA-MB-231, BT20, HCC827; vs non-treatment
Method: Afterward, the same cells as previously used were treated with an immunoglobulin antibody or cetuximab, and diffusion coefficients were measured by the same method as described above. Changes in diffusion coefficient were calculated by Equation 3, compared to that under the non-treatment condition, and the results are shown in FIG. 32.

[5] = Example 8, molecular specificity test, before vs after antibody

Substance: cetuximab
- change in diffusion coefficient of PMT (PMT; 20 μg/ml, before vs after treatment (Examples 1.5, 7)): almost no change
- change in diffusion coefficient of PMT (PMT; [5]): no change
- reduced diffusion coefficient of PMT (PMT; Example 10.2, PMT-expressed COS7 cells): a reduced diffusion coefficient of PMT is not shown
- phosphorylation of EGFR (western blotting) [1]: prevent phosphorylation of EGFR
- attachment of Alexa Fluor 647-conjugated antibody to the cell surface (flow cytometry) [2]: relatively well attached to the cell surface
- change in diffusion coefficient of endogenous EGFR [3]: about 40%
- change in diffusion coefficient of endogenous EGFR [4]: about 40%

Substance: trastuzumab
- change in diffusion coefficient of PMT (PMT; [5]): no change
- attachment of Alexa Fluor 647-conjugated antibody to the cell surface (flow cytometry) [2]: relatively well attached to the cell surface
